# Measured values published in PMC10544810 (Food & Function, 2023).
# Experiments:
# [1] = LC-MS; assay type: in vivo, human; conditions: given as x : 1; plasma versus CSF concentrations
# [2] = LC-MS; assay type: in vivo, human; conditions: individual volunteers, ESI Fig. S4
substance,measurement,setting,value
Quercetin-3′-glucuronide,plasma : CSF ratio,[1],23
same,concentrations detected in plasma,[2],below 1 μM
